43 compounds from US10287286B2, “Compounds” (Takeda Pharmaceutical Company Limited, priority 2015, dated 2019) can be followed below.

The chains behind the UniProt entries cited, without tags or fusion partners.
UniProt Q96KS0, whole entry: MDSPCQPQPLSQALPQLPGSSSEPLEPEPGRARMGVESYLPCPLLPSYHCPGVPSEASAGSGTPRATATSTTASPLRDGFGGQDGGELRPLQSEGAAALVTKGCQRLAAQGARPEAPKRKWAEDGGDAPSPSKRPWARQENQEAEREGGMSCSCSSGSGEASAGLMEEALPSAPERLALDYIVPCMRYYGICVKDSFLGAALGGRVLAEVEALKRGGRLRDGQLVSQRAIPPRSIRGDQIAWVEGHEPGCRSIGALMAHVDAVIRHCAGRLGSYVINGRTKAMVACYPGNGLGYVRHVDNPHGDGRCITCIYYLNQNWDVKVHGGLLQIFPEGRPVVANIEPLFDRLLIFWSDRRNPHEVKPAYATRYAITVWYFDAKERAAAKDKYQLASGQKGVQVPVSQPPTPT

This test concerns the target PHD1 enzyme (residues 1-407) (Homo sapiens (Human), UniProt Q96KS0). Nature of the test: PHD1 Enzyme Assay (UPLC-MS detection of hydroxylated peptide product). The note with it: 20 nM, 60 min pre-incubation at room temperature. In kind it is biochemical.

As usually defined, the IC50 is the point on the concentration scale where inhibition reaches its midpoint. Low values mean inhibition by little substance, high ones a need for much substance. Regarding `Cc1cc(C#N)ccc1-c1cc(NC(=O)CC(F)(F)F)cc2ncnn12` [Example 175, N-[5-(4-cyano-2-methylphenyl)-[1,2,4]triazolo[1,5-a]pyridin-7-yl]-3,3,3-trifluoropropanamide], the 50% inhibitory concentration (IC50) came out at 143 nM.

Consider `Cc1cc(C#N)ccc1-c1cc(N2CC3(COC3)C2)cc2ncnn12` [Example 252, 3-Methyl-4-(7-{2-oxa-6-azaspiro[3.3]heptan-6-yl}-[1,2,4]triazolo[1,5-a]pyridin-5-yl)benzonitrile], for which the midpoint of inhibition, the IC50, lay at 1130 nM.

`N#Cc1ccc(-c2cc(NS(=O)(=O)c3ccccc3)cc3ncnn23)cc1F` [Example 149, N-[5-(4-cyano-3-fluorophenyl)-[1,2,4]triazolo[1,5-a]pyridin-7-yl]benzenesulfonamide] registered an IC50 of 252 nM.

`N#Cc1ccc(-c2cc(NCC3CCOC3)cc3ncnn23)cc1` (stereo not shown) [Example 105, 4-{7-[(oxolan-3-ylmethyl)amino]-[1,2,4]triazolo[1,5-a]pyridin-5-yl}benzonitrile] came in with an IC50 of 25 nM.

Consider `CC(C)CC1CCCN1c1cc(-c2ccc(C#N)cc2)n2ncnc2n1` (stereo not shown) [Example 94, 4-{5-[2-(2-methylpropyl)pyrrolidin-1-yl]-[1,2,4]triazolo[1,5-a]pyrimidin-7-yl}benzonitrile], for which half-maximal inhibition (IC50) required 238 nM.

The compound `Fc1cc(-c2cccc3ncnn23)ccc1Cl` [Example 12, 5-(4-chloro-3-fluorophenyl)-[1,2,4]triazolo[1,5-a]pyridine] had an IC50 of 452 nM.

Regarding `Cc1cc(C#N)ccc1-c1cc(N)nc2ncnn12` [Example 257, 4-{5-Amino-[1,2,4]triazolo[1,5-a]pyrimidin-7-yl}-3-methylbenzonitrile], the half-maximal inhibitory concentration (IC50) was determined as 165 nM.

For `N#Cc1ccc(-c2cc(N3CCC4(CCC4)CC3)nc3ncnn23)cc1` [Example 98, 4-(5-{7-azaspiro[3.5]nonan-7-yl}-[1,2,4]triazolo[1,5-a]pyrimidin-7-yl)benzonitrile], the IC50 turned out to be 427 nM.

In turn, `N#Cc1ccc(-c2c(F)ccc3ncnn23)cc1F` [Example 214, 2-Fluoro-4-{6-fluoro-[1,2,4]triazolo[1,5-a]pyridin-5-yl}benzonitrile] came in with an IC50 of 632 nM.

In the case of `CC(=O)N(C)c1cc(-c2ccc(C#N)c(F)c2)n2ncnc2c1` [Example 136, N-[5-(4-cyano-3-fluorophenyl)-[1,2,4]triazolo[1,5-a]pyridin-7-yl]-N-methylacetamide], the IC50 was 3220 nM.

Take `N#Cc1ccc(-c2cc(NCC3COC3)cc3ncnn23)cc1F` [Example 125, 2-fluoro-4-{7-[(oxetan-3-ylmethyl)amino]-[1,2,4]triazolo[1,5-a]pyridin-5-yl}benzonitrile]: inhibition was half-maximal at 208 nM (IC50).

In turn, `CNC(=O)c1cc(-c2ccc(C#N)cc2)n2ncnc2c1` [Example 59, 5-(4-cyanophenyl)-N-methyl-[1,2,4]triazolo[1,5-a]pyridine-7-carboxamide] displayed an IC50 of 269 nM.

Turning to `N#Cc1ccc(-c2cc(NCc3ccccc3)cc3ncnn23)cc1` [Example 114, 4-[7-(benzylamino)-[1,2,4]triazolo[1,5-a]pyridin-5-yl]benzonitrile], the concentration for half-maximal inhibition (IC50) was 33 nM.

For `Cc1cc(C#N)c(F)cc1-c1cc(N)nc2ncnn12` [Example 254, 4-{5-Amino-[1,2,4]triazolo[1,5-a]pyrimidin-7-yl}-2-fluoro-5-methylbenzonitrile], the concentration for half-maximal inhibition (IC50) is 751 nM.

`N#Cc1ccc(-c2cc(N)cc3ncnn23)cc1F` [Example 146, 4-{7-Amino-[1,2,4]triazolo[1,5-a]pyridin-5-yl}-2-fluorobenzonitrile] registered a half-inhibitory concentration (IC50) of 27 nM.

`N#Cc1c(F)cc(-c2ccnc3ncnn23)cc1F` [Example 202, 2,6-difluoro-4-{[1,2,4]triazolo[1,5-a]pyrimidin-7-yl}benzonitrile] returned an IC50 of 4480 nM.

`CN(C)C1CCN(c2cc(-c3ccc(C#N)cc3)n3ncnc3n2)C1` (stereo not shown) [Example 73, 4-{5-[3-(dimethylamino)pyrrolidin-1-yl]-[1,2,4]triazolo[1,5-a]pyrimidin-7-yl}benzonitrile] had an IC50 of 5440 nM.

Regarding `CC1(C)CCN(c2cc(-c3ccc(C#N)cc3)n3ncnc3n2)C1` [Example 92, 4-[5-(3,3-dimethylpyrrolidin-1-yl)-[1,2,4]triazolo[1,5-a]pyrimidin-7-yl]benzonitrile], the IC50 stood at 792 nM.

`N#Cc1ccc(-c2nccc3ncnn23)cc1F` [Example 17, 2-fluoro-4-{[1,2,4]triazolo[1,5-c]pyrimidin-5-yl}benzonitrile] gave an IC50 of 2160 nM.

The compound `N#Cc1ccc(-c2cc(NC(=O)OCC3CC3)cc3ncnn23)cc1F` [Example 195, cyclopropylmethyl N-[5-(4-cyano-3-fluorophenyl)-[1,2,4]triazolo[1,5-a]pyridin-7-yl]carbamate] yielded an IC50 of 14 nM.

The compound `CC1CCC(C)N1c1cc(-c2ccc(C#N)cc2)n2ncnc2n1` (stereo not shown) [Example 91, 4-[5-(2,5-dimethylpyrrolidin-1-yl)-[1,2,4]triazolo[1,5-a]pyrimidin-7-yl]benzonitrile] showed an IC50 of 2450 nM.

In turn, `CC(=O)Nc1cc(-c2cc(F)c(C#N)cc2C)n2ncnc2c1` [Example 262, N-[5-(4-Cyano-5-fluoro-2-methylphenyl)-[1,2,4]triazolo[1,5-a]pyridin-7-yl]acetamide] registered an IC50 of 108 nM.

`N#Cc1ccc(-c2cc(NCCC(F)(F)F)cc3ncnn23)cc1F` [Example 126, 2-fluoro-4-{7-[(3,3,3-trifluoropropyl)-amino][1,2,4]triazolo-[1,5-a]pyridin-5-yl}benzonitrile] displayed an IC50 of 53 nM.

On to `Cc1cc(C#N)ccc1-c1c(F)ccc2ncnn12` [Example 215, 4-{6-Fluoro-[1,2,4]triazolo[1,5-a]pyridin-5-yl}-3-methylbenzonitrile], for which inhibition was half-maximal at 953 nM (IC50).

Consider `COCCNC(=O)c1cc(-c2ccc(C#N)cc2)n2ncnc2c1` [Example 44, 5-(4-cyanophenyl)-N-(2-methoxyethyl)-[1,2,4]triazolo[1,5-a]pyridine-7-carboxamide], for which the IC50 came out at 1760 nM.

Compound `N#Cc1ccc(-c2cc(NC(=O)[C@@H]3CCCO3)cc3ncnn23)cc1F` [Example 159, (2S)-N-[5-(4-cyano-3-fluorophenyl)-[1,2,4]triazolo[1,5-a]pyridin-7-yl]oxolane-2-carboxamide] showed a 50% inhibitory concentration (IC50) of 147 nM.

Compound `N#Cc1ccc(-c2cc(NC(=O)C3CCC3)cc3ncnn23)cc1F` [Example 155, N-[5-(4-cyano-3-fluorophenyl)-[1,2,4]triazolo[1,5-a]pyridin-7-yl]cyclobutanecarboxamide] returned an IC50 of 130 nM.

As to `COC1CN(c2cc(-c3ccc(C#N)c(F)c3)n3ncnc3c2)C1` [Example 138, 2-fluoro-4-[7-(3-methoxyazetidin-1-yl)-[1,2,4]triazolo[1,5-a]pyridin-5-yl]benzonitrile], half-maximal inhibition (IC50) was put at 170 nM.

Consider `N#Cc1ccc(-c2cc(NC(=O)CN3CCC3)cc3ncnn23)cc1` [Example 180, 2-(Azetidin-1-yl)-N-[5-(4-cyanophenyl)-[1,2,4]triazolo[1,5-a]pyridin-7-yl]acetamide], for which the IC50 came to 79 nM.

The compound `COC1CN(Cc2cc(-c3ccc(C#N)cc3)n3ncnc3c2)C1` [Example 191, 4-{7-[(3-methoxyazetidin-1-yl)methyl]-[1,2,4]triazolo[1,5-a]pyridin-5-yl}benzonitrile] had an IC50 of 2900 nM.

`N#Cc1ccc(-c2cc(OCCN3CCCC3=O)cc3ncnn23)cc1F` [Example 132, 2-fluoro-4-{7-[2-(2-oxopyrrolidin-1-yl)ethoxy]-[1,2,4]triazolo[1,5-a]pyridin-5-yl}benzonitrile] came in with a 50% inhibitory concentration (IC50) of 480 nM.

For `CN1CC(NC(=O)c2cc(-c3ccc(C#N)cc3)n3ncnc3c2)C1` [Example 70, 5-(4-cyanophenyl)-N-(1-methylazetidin-3-yl)-[1,2,4]triazolo[1,5-a]pyridine-7-carboxamide], the IC50 is 607 nM.

In turn, `Cc1cc(C#N)ncc1-c1cccc2ncnn12` [Example 25, 4-methyl-5-{[1,2,4]triazolo[1,5-a]pyridin-5-yl}pyridine-2-carbonitrile] yielded a concentration for half-maximal inhibition (IC50) of 56 nM.

`COCCNc1cc(-c2ccc(C#N)cc2)n2ncnc2c1` [Example 102] gave an IC50 of 34 nM.

Compound `N#Cc1ccc(-c2cc(NC(=O)CN3CCCCC3)cc3ncnn23)cc1F` [Example 158, N-[5-(4-cyano-3-fluorophenyl)-[1,2,4]triazolo[1,5-a]pyridin-7-yl]-2-(piperidin-1-yl)acetamide] registered an IC50 of 91 nM.

As to `N#Cc1ccc(-c2cc(OCC3CCOC3)cc3ncnn23)cc1F` (stereo not shown) [Example 133], the IC50 was determined as 2300 nM.

In turn, `N#Cc1ccc(-c2ccnc3ncnn23)c(F)c1F` [Example 207, 2,3-difluoro-4-{[1,2,4]triazolo[1,5-a]pyrimidin-7-yl}benzonitrile] returned an IC50 of 2660 nM.

Compound `N#Cc1ccc(-c2cc(NC(=O)CC3CCOCC3)cc3ncnn23)cc1F` [Example 156, N-[5-(4-cyano-3-fluorophenyl)-[1,2,4]triazolo[1,5-a]pyridin-7-yl]-2-(oxan-4-yl)acetamide] displayed an IC50 of 129 nM.

Compound `N#Cc1ccc(-c2cc(CNCC(F)F)cc3ncnn23)cc1` [Example 187, 4-(7-{[(2,2-difluoroethyl)amino]methyl}-[1,2,4]triazolo[1,5-a]pyridin-5-yl)benzonitrile] returned a 50% inhibitory concentration (IC50) of 1400 nM.

Compound `COC1CN(c2cc(-c3ccc(C#N)cc3)n3ncnc3c2)C1` [Example 140, 4-[7-(3-methoxyazetidin-1-yl)-[1,2,4]triazolo[1,5-a]pyridin-5-yl]benzonitrile] gave an IC50 of 151 nM.

Compound `N#Cc1ccc(-c2cc(NC(=O)Cc3ccccc3)cc3ncnn23)cc1` [Example 152, N-[5-(4-cyanophenyl)-[1,2,4]triazolo[1,5-a]pyridin-7-yl]-2-phenylacetamide] displayed an IC50 of 42 nM.

For `COCC(=O)Nc1cc(-c2ccc(C#N)c(F)c2)n2ncnc2c1` [Example 154, N-[5-(4-cyano-3-fluorophenyl)-[1,2,4]triazolo[1,5-a]pyridin-7-yl]-2-methoxyacetamide], the IC50 is 490 nM.

In the case of `Cc1cc(C#N)ccc1-c1cc(NCC(O)CO)cc2ncnn12` (stereo not shown) [Example 232, 4-{7-[(2,3-Dihydroxypropyl)amino]-[1,2,4]triazolo[1,5-a]pyridin-5-yl}-3-methylbenzonitrile], 74 nM corresponded to half-maximal inhibition (IC50).
